A549 tox = A549 cytotoxicity, counter-screen for Nrf2 inhibitors; A549 ARE-Fluc cells, CellTiter-Fluor viability, 18-24 h; Potency, µM (titrated, usually from 46 µM), without a hit: at the top dose activity change, negative = cytotoxicity, usual class: inhibitors; actives 0.16% (n = 390,000); AID 504648; further: potency means the concentration at half of the fitted maximal effect; on the % scale 0 is the no-effect control and ±100 the full control effect
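A549 ARE-Fluc cells in 5% FBS OPTI-MEM, 5000 cells/well, rested 2 h then exposed to compounds in concentration-response for 18-24 h at 37 °C. Viability by CellTiter-Fluor fluorescence (Ex 405/Em 525) after 30 min; luciferase luminescence (BugLite, 15 min, RT) read afterwards.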
p53 reactivator = re-activators of mutant p53; actives 0.063% (n = 320,000); Potency, µM (titrated, usually from 92.2 µM), for inactives: at the top dose activity change, positive = activation, actives largely listed as activators; AID 504706; H1299 p53-A138V BP100-luciferase reporter, luminescence, 24 h; further: potency means the concentration at half of the fitted maximal effect; % of control where 0% means no effect; nearly all actives have a fitted effect of over 45% in size
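H1299 (p53-null), stable ts p53-A138V + BP100-Luc; 1000 cells/well, Opti-MEM/10% FBS; cpd 4 pt, 1:5; 24 h, 37 deg C, 5% CO2; detection reagent 10 min RT; luminescence.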
Nrf2 block = inhibitors of Nrf2 signaling; A549 ARE-Fluc reporter, luciferase luminescence, 18-24 h; Potency, µM (highest dose often 46 µM), for inactives: at the highest dose activity change, negative = inhibition, usual class: inhibitors; actives 2.1% (n = 360,000); further: potency means the concentration at half of the fitted maximal effect; on the % scale 0 is the no-effect control and ±100 the full control effect; nearly all actives have a fitted effect of over 60% in size
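Concentration-response testing used A549 ARE_Fluc cells at 5000 cells/well. Following an 18-24 h compound incubation, viability was read by fluorescence (Ex 405/Em 525) and luciferase output by luminescence.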
ClpP mod = qHTS Assay for Activators of ClpP. ATP-dependent Clp protease proteolytic subunit (Bacillus subtilis (strain 168)), P80244. Potency, µM (highest dose often 57.5 µM), inactives show at the top dose activity change, negative = active. purified B. subtilis ClpP, FRET peptide cleavage, 20 min. actives 1.9% (n = 340,000); active means well fitted falling curve with a large enough effect; inconclusive means small, poorly fitted or top-dose-only effect; inactive means no such curve, though single readings can be large or run the other way; further: potency means the concentration at half of the fitted maximal effect; the source files actives as falling curves though it sought activators and does not explain the sign; nearly all actives have a fitted effect of over 65% in size
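Buffer: 100 mM Tris/HCl pH8, 100 mM KCl, 0.05% low protease BSA, 2.5% glycerol, 0.01% Tween-20. ClpP 10 microg/mL final; 20 min RT; delta FRET normalized to ADEP and DMSO controls.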
miR-21 reporter = miR-21 reporter, rising signal; HeLa miR-21 FLuc reporter, luciferase, 48 h; Potency, µM (top dose mostly 38.3 µM), without a hit: at the top dose reporter change, positive = more light; 340,000 tested, under 10 active; active = well fitted rising curve with a large enough effect; inconclusive = small, poorly fitted or top-dose-only effect; inactive = no such curve, though single readings can be large or run the other way;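 note: % of control where 0% means no effect; miR-21 action dims this reporter so a rising signal means less miR-21 action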
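Compounds were titrated across several concentrations (up to approximately 40 uM) and incubated 48 hours with HeLa miR-21-FLuc reporter cells (miR-21 target sequence downstream of FLuc, endogenous miR-21). Readout was firefly luciferase luminescence after lytic detection reagent.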
Nrf2 activator = activators of Nrf2 (ARE) signaling | AREc32 ARE-luciferase reporter (MCF7-derived line), luminescence, 24 h | Potency, µM (titrated, usually from 46.1 µM), without a hit: at the highest dose activation, hits mostly activators | actives 0.31% (n = 410,000) | AID 624171; further: potency means the concentration at half of the fitted maximal effect; % of control where 0% means no effect; nearly all actives have a fitted effect of over 65% in size
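Nrf2 activation is followed as ARE-luciferase induction in the AREc32 line after one day of compound treatment; luminescence is read with Steady-Glo.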
Active calls of the source: *; ? = inconclusive; nt = no result given; [ ] = dose if it differs, or a comment. Rows were chosen to be rich in hits. Some 3.7% of all compounds tested hit in one or more screens of this group. Unless noted, the call rests on the fitted dose curve; in most records, active means well fitted curve in the direction sought with a large enough effect; inconclusive means small, poorly fitted or top-dose-only effect, or another doubt; inactive means no such curve, though single readings can be large; an effect the other way counts as inactive or inconclusive.

The chains behind the UniProt entries cited, without tags or fusion partners.
ATP-dependent Clp protease proteolytic subunit (Bacillus subtilis (strain 168)), P80244, UniProt P80244, whole entry, looked up: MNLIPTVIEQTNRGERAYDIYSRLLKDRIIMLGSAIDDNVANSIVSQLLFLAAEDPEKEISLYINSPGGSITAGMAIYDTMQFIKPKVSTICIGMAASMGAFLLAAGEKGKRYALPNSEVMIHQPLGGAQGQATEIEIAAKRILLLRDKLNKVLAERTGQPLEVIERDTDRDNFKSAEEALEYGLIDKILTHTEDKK

Results follow in this order: A549 tox, p53 reactivator, Nrf2 block, ClpP mod, miR-21 reporter, Nrf2 activator
#1 COc1ccc(C2c3c(ncn(Cc4ccccc4)c3=N)Oc3ccc4ccccc4c32)cc1OC (stereo not given)
  -10%, nt, 3%, nt, nt, nt
#2 COc1ccc(CNC(=O)CN2C(=O)COc3ccc(S(=O)(=O)Nc4ccccc4)cc32)cc1
  0%, nt, 19%, -2%, 0%, 0%
#3 CN(C)CCNC(C(=O)Nc1cc(Cl)cc(Cl)c1)c1ccccc1 (stereo not given)
  0%, -5%, 0%, nt, -13%, -1%
#4 CC(C)NC(C(=O)Nc1cc(Cl)cc(Cl)c1)c1ccccc1 (stereo not given)
  3%, -1%, 4%, 28µM*, -5%, 7%
#5 COc1ccc(-c2cccc(C3C4C=CCCC4(C)C(=O)N3Cc3ccccc3)c2)cc1 (stereo not given)
  6%, nt, -24%, nt, nt, nt
#6 O=C(/C=C/c1ccc2c(c1)OCO2)c1ccccn1
  1%, 32µM*, 17%, nt, -34%, ?
#7 CC1CN(C(=O)/C=C/c2ccc3c(c2)OCO3)CC(C)O1 (stereo not given)
  0%, 6%, 2%, 28µM*, -9%, 0%
#8 CC1CCCN(C(=O)COC(=O)Cc2c[nH]c3ccccc23)C1 (stereo not given)
  6%, 8%, -7%, -3%, nt, 0%
#9 COC(=O)C1CCN(C(=O)COC(=O)Cc2c[nH]c3ccccc23)CC1
  1%, -2%, nt, 32µM*, 0%, 6%
#10 CC(C)(C)c1ccc(OCCC(=O)NCCc2ccc(S(N)(=O)=O)cc2)cc1
  -2%, -2%, ?, -1%, 3%, 0%
#11 Cc1ccc(OCCC(=O)NCCc2ccc(S(N)(=O)=O)cc2)cc1
  -3%, 5%, 4%, 13µM*, -8%, -1%
#12 CN(CC(=O)NCCc1ccc(S(N)(=O)=O)cc1)Cc1c(F)cccc1Cl
  4%, -5%, -5%, nt, 5%, -1%
#13 CN(CC(=O)NCCc1ccc(S(N)(=O)=O)cc1)Cc1ccc(Cl)cc1Cl
  -6%, -1%, 18µM*, 0%, 13%, 0%
#14 NS(=O)(=O)c1ccc(CCNC(=O)CN2CCN(c3ccc(F)cc3)CC2)cc1
  -11%, -1%, 16µM*, 0%, 8%, 0%
#15 COc1ccccc1NC(=O)CC(c1cc(OC)c(OC)c(OC)c1)N1Cc2ccccc2C1=O (stereo not given)
  -1%, nt, 11%, 1%, -2%, 0%
#16 COCCCNC(=S)Nc1cccc2ncccc12
  -2%, 2%, 13µM*, nt, 1%, -3%
#17 O=C(NC(=S)Nc1cccc2ncccc12)c1ccco1
  1%, -1%, 13%, -1%, -2%, 8%
#18 Cc1noc(-c2ccc(N3CCCCC3)c([N+](=O)[O-])c2)n1
  -1%, nt, 9%, 0%, 12%, 4%
#19 CC[n+]1c(/C=C2\C=C(C)CC(C)(C)C2)sc2ccccc21
  -13%[1.84 µM], -15%, 16µM*, 0%, 6%, ?
#20 CCOc1ccc(-n2c(C)nc3cc(C(=O)NCCCN4CCOCC4)ccc32)cc1
  6%, -1%, 26%, 32µM*, -2%, 3%
#21 COc1ccc(NC(=O)Cn2c(-c3ccccc3)cn(-c3ccc(C)cc3)c2=O)cc1
  -5%, 0%, 2%, 12%, -6%, 6%
#22 COc1ccc(-n2cc(-c3ccc4c(c3)OCO4)n(CC(=O)Nc3cc(Cl)ccc3C)c2=O)cc1
  -19%, nt, ?, -29%, -14%, 4%
#23 Cc1ccc(NC(=O)Cn2c(-c3ccc4c(c3)OCO4)cn(-c3ccccc3)c2=O)cc1C
  -5%, nt, 17%, 28µM*, -25%, 1%
#24 COc1ccc(-n2cc(-c3ccc4c(c3)OCO4)n(CC(=O)Nc3cccc(C)c3C)c2=O)c(OC)c1
  ?, nt, 13µM*, -23%, ?, -1%
#25 Clc1ccc2c(c1)-c1c(cnc3cc(-c4ccccc4)nn13)CO2
  -2%, nt, 17%, -1%, -11%, 4%

Shown as a hit in p53 reactivator, among the entries above:
nr | smiles | p53 reactivator | miR-21 reporter | Nrf2 activator
6 | O=C(/C=C/c1ccc2c(c1)OCO2)c1ccccn1 | 32µM* | -34% | ?

Entries of single compounds as entered above. Order of screens: A549 tox | p53 reactivator | Nrf2 block | ClpP mod | miR-21 reporter | Nrf2 activator
Listed for COc1ccc(CNC(=O)CN2C(=O)COc3ccc(S(=O)(=O)Nc4ccccc4)cc32)cc1 : 0% | nt | 19% | -2% | 0% | 0%
Listed for NS(=O)(=O)c1ccc(CCNC(=O)CN2CCN(c3ccc(F)cc3)CC2)cc1 : -11% | -1% | 16µM* | 0% | 8% | 0%

Source: PubChem BioAssay
